Laboratory results: publication PMC11694514, “Structural and kinetic characterization of DUSP5 with a Di-phosphorylated tripeptide substrate from the ERK activation loop” (Frontiers in chemical biology, 2024)

Target: T1, DUSP5pdWT (Homo sapiens, UniProt Q16690)
T1 sequence (Q16690 178-319 limits assumed): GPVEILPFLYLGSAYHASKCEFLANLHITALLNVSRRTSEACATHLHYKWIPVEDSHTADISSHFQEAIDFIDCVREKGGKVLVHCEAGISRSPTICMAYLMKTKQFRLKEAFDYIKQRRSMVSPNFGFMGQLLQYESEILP
Experiment: Steady state inhibition of pNPP hydrolysis by vanadate and phosphate
Details: pNPP substrate; Tris pH 7.5, 0.045 mM DTT; global kinetics analysis

Substance sodium vanadate has a Ki of 638 nM.
